Results: ChEMBL document CHEMBL6134834, “Aromatic nitroolefin with inhibition efficacy in triple-negative breast cancer cells by dual targeting RXRα and tubulins” (Eur J Med Chem, 2025)

Columns and labels:
[1] = test system: MCF-10A; experiment: Cytotoxicity against human MCF-10A cells assessed as inhibition of cell growth at 1.25 to 5 uM incubated for 24 hrs by MTT assay; assay type: toxicity, cell-based; conditions: dose 1.25-5 µM
[2] = Cytotoxicity against mouse MLE-12 cells assessed as inhibition of cell growth at 1.25 to 5 uM incubated for 24 hrs by MTT assay; assay type: toxicity, cell-based; conditions: mle-12, 24 h, dose 1.25-5 µM

## COc1cc(/C=C/[N+](=O)[O-])c2ccccc2c1
[1]
  Activity: Non-toxic
[2]
  Activity: Non-toxic
